Values quoted from earlier work, collected in patent publication US20060165671A1, “Novel nutraceutical compositions comprising epigallocatechin gallate” (priority 2002, published 2006).

Conditions: in vivo, po

In the case of `CC(C)(CO)[C@@H](O)C(=O)NCCC(=O)NCCSSCCNC(=O)CCNC(=O)[C@H](O)C(C)(C)CO` [pantethine], the “high density lipoprotein (HDL) cholesterol” value is listed as “increase”, the “low density lipoprotein (LDL) cholesterol” value is listed as “progressive decrease” and the total cholesterol is listed as “progressive decrease”. The triglycerides was “progressive decrease”.
